{"source": "patent US8361796B2", "about": "“Method for generating primate cardiovascular progenitor cells for clinical use from primate embryonic stem cells or embryonic-like state cells, and their applications” (Assistance Publique—Hopitaux de Paris, priority 2008, dated 2013)", "molecules": {"B1": {"name": "BMP2: Human recombinant BMP2, cardiogenic morphogen (protein, UniProt P12643 283-396, looked up)", "Bone morphogenetic protein 2": "QAKHKQRKRLKSSCKRHPLYVDFSDVGWNDWIVAPPGYHAFYCHGECPFPLADHLNSTNHAIVQTLVNSVNSKIPKACCVPTELSAISMLYLDENEKVVLKNYQDMVVEGCGCR"}}, "test_system": "HUES-1 cells embryoid bodies (EBs)", "assay": "Gene expression in embryoid bodies from BMP2-challenged HUES-1 cells", "assay_type": "cell-based, human", "description": "To test whether BMP2-induced HES cell commitment was translated into a process of cardiac differentiation and to envision the differentiation scenario that might take place in vivo, control or BMP2-challenged HUES-1 cells were allowed to aggregate to form embryoid bodies (EBs). Gene expression was then monitored in day 2 and day 5 EBs. […] Similar results were obtained using I6 cell line."}
{"molecule": "B1", "values": [{"measurement": "induction in gene expression in EBs", "setting": "day 2 EBs, cells pretreated with BMP2", "result": "two fold induction"}, {"measurement": "Oct-4 expression in EBs", "setting": "day 5 EBs generated from BMP2-treated ES cells", "result": "downregulated and almost absent"}, {"measurement": "increase of expression of mesodermal and cardiac genes in EBs", "setting": "day 5 EBs, cells pretreated with BMP2", "result": "3 to 10", "unit": "folds"}]}
